Test results reported in patent US20250000864A1, “GONADOTROPIN-RELEASING HORMONE ANTAGONIST, AND PREPARATION METHOD THEREFOR AND USE THEREOF” (SHANDONG LUYE PHARMACEUTICAL CO., LTD., priority 2021, published 2025).

What was measured:
[1] = system: Caco-2 cells; assay: Caco-2 two-way permeability and efflux; assay type: in vitro ADME; conditions: Caco-2, 120 min incubation
[2] = Pharmacokinetics in SD rats (i.v. and i.g.); assay type: in vivo

- Mean Papp A to B [1]: 0.0317 10^−6 cm/s
- AUClast ([2]; i.g 12 mg/kg): 604 ± 165 ng·h/mL
- Cmax ([2]; i.g 12 mg/kg): 220 ± 32 ng/mL
- MRTlast ([2]; i.g 12 mg/kg): 4.84 ± 2.10 h
- AUClast ([2]; i.v 1 mg/kg): 460 ± 163 ng·h/mL
- C0 ([2]; i.v 1 mg/kg): 822 ± 274 ng/mL
- MRTlast ([2]; i.v 1 mg/kg): 1.16 ± 0.13 h
Compound: COCCN(C)Cc1c(-c2ccc(NC(=O)NOC)cc2)sc2c1c(=O)n(-c1ccc(OC)nn1)c(=O)n2Cc1c(F)cccc1F
